Earlier results on one molecule are cited in paper PMC4961704, “Synthesis and Biological Evaluation of Thiophene-Based Cannabinoid Receptor Type 2 Radiotracers for PET Imaging” (Frontiers in Neuroscience, 2016).

Chains of the proteins cited; added tags and fusions are not shown.
UniProt P34972, whole entry: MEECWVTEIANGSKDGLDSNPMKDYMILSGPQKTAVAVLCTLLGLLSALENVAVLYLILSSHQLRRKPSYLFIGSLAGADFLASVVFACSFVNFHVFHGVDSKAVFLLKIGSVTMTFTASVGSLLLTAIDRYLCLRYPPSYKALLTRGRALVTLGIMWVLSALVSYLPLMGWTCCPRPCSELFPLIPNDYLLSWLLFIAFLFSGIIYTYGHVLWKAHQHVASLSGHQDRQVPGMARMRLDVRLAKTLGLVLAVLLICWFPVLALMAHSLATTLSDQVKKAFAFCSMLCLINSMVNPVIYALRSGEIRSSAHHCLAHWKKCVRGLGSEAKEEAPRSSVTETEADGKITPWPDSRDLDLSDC

The target in the series is T1, hCB2 (Homo sapiens, UniProt P34972).
T1 construct: purchased PerkinElmer; host or cells: CHO-K1 cells stably transfected
Set-up: method as in earlier work. As to conditions: known ligands, entry 1–3; ref Showalter et al., 1996; Lan et al., 1999; Valenzano et al., 2005; cited from earlier work.

One may read the Ki as the dissociation constant of the complex between target and ligand, obtained from inhibition or displacement. Turning to `Cc1c(C(=O)NN2CCCCC2)nn(-c2ccc(Cl)cc2Cl)c1-c1ccc(I)cc1` [AM251], the Ki is 2290 ± 900 nM.
